Measured values from patent US20200317817A1 (XOMA US, published 2020).

Sequences of proteins named here, by UniProt entry; tags and fusion partners are left off. Residues count along the entry.
UniProt Q03431, 27-593: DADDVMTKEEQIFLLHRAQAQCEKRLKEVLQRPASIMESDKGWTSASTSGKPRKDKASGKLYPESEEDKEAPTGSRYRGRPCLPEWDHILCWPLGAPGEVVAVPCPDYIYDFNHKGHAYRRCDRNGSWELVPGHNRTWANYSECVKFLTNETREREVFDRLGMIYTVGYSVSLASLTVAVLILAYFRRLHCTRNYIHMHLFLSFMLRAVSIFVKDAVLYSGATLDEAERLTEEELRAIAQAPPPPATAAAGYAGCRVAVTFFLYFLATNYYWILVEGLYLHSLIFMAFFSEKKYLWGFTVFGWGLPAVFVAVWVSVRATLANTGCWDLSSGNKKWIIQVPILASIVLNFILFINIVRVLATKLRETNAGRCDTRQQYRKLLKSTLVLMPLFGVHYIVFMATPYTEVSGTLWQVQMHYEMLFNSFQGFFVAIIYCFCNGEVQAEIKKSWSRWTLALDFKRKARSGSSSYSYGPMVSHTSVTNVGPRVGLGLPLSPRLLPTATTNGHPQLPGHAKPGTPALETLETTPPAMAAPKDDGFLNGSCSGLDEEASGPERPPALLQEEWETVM

Experiments:
[1] = target: human PTH1R on Saos-2 cells (endogenous) (human) (UniProt Q03431); test: cell-based or functional assay
[2] = target: human PTH1R overexpressed on CHO cells (human) (UniProt Q03431); test: cell-based or functional assay

EC50 of PTHrP(1-34), cAMP assay, vehicle only [1]: 0.699 nM
EC50 of PTHrP (1-34) induced ERK1/2 phosphorylation without anti-PTH1R antibody [2]: 10.6 nM
EC50 of PTHrP(1-34), cAMP assay, vehicle only [2]: 0.0614 nM
Substance: human PTHrP(1-34) (from UniProt P12272 37-70) (peptide)
